# Experimental vapor pressure values from OPERA 2.9

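The OPERA project collected these measurements from public sources as training and test data for property models. One number stands for a compound and property, with no spread given. Method and conditions are not stated for these values. The measured form (salt, isomer or mixture) is not always the one drawn. Some upstream entries may be estimates or bounds without being marked so.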

Vapor pressure is log10 of mmHg; the set covers 15 to 30 °C, mostly 20 to 25 °C.

| log VP (log10 mmHg) | compound |
|---|---|
| -1.514 | CCCCCCC(Cl)CCCC (centres undefined) |
| -6.715 | CCCCCCC(O)CCCCCCCCCCC(=O)O (centres undefined) |
| -3.726 | COc1c(O)c(OC)c(Cl)c(C=O)c1Cl |
| 2.316 | CC=CC(C)C |
| -6.824 | O=C(O)Cc1c[nH]c2ccccc12 |
| 2.424 | FC(F)(F)COC(F)(F)C(F)(F)C(F)(F)F |
| -4.696 | O=C1CCCCCCCCCCCN1 |
| -13.14 | NCCCCCC(=O)O |
| -0.351 | CN(C)CCOCCN(C)C |
| -3.455 | CCCCCCCCCCCCC(Cl)CC (centres undefined) |
| -11.29 | CCCCCCCCCC(=O)OCC(CO)(CO)COC(=O)C(CC)CCCC (centres undefined) |
| 0.153 | CC(Br)CC(C)Br (centres undefined) |
| -7.893 | Cc1nc(C)c(C(=O)Nc2ccccc2)s1 |
| -3.804 | Clc1cc(Cl)c2c(Cl)ccc(Cl)c2c1 |
| -5.674 | CCCCOC(=O)CSCSCC(=O)OCCCC |
| -7.663 | CCCCCCCCCCCCCCCCCCCCCC(=O)[O-].[Ag+] |
| -4.595 | Clc1cc(Cl)cc(-c2c(Cl)ccc(Cl)c2Cl)c1 |
| -7 | CC(=O)Nc1cc(NS(=O)(=O)C(F)(F)F)c(C)cc1C.OCCNCCO |
| -8.678 | O=CC(=O)[O-].[Na+] |
| 1.824 | C1=COCCC1 |
| -0.171 | O=Cc1ccc(Cl)cc1 |
| 1.509 | C[Si](C)(Cl)CCl |
| -2.92 | C=CC(C)(O)C=CC1=C(C)CCCC1(C)C (centres undefined) |
| -4.473 | CCOC(=O)N1C(=O)c2ccccc2C1=O |
| -7.32 | OC1(c2ccc(Cl)cc2)CCNCC1 |
| -3.401 | Cc1cccc2sc(N)nc12 |
| -2.706 | COc1ccc(Cl)c(Cl)c1Cl |
| 1.088 | O=CC(=O)O |
| -4.03 | CC(C)Nc1nc(N)nc(Cl)n1 |
| -9.892 | CC(CCC(=O)[O-])C1CCC2C3C(O)CC4CC(O)CCC4(C)C3CC(O)C12C.[Na+] (centres undefined) |
| -1.821 | CCCC1CCCC(=O)O1 (centres undefined) |
| -3.727 | CC(C)CCOC(=O)c1ccccc1C(=O)OCCC(C)C |
| 1.549 | FC(F)(F)C1(F)C(F)(F)C(F)(F)C(F)(F)C(F)(C(F)(F)F)C1(F)F (centres undefined) |
| -0.979 | CCCCOC(=O)CC(C)O (centres undefined) |
| -4.245 | Clc1cc(Cl)cc(-c2cc(Cl)ccc2Cl)c1 |
| 2.398 | C=C[Si](C)(C)C |
| -5.346 | Cc1cc(O)c(C)c(C)c1O |
| 2.64 | C[SiH](C)Cl |
| -9.837 | O=C([O-])[C@H](O)[C@@H](O)C(=O)[O-].[Sr+2] |
| -5.157 | C=CC(=O)OCCN(C)S(=O)(=O)C(F)(F)C(F)(F)C(F)(F)C(F)(F)C(F)(F)C(F)(F)C(F)(F)C(F)(F)F |
| -0.824 | CC1=CC[C@H](CC=O)C1(C)C |
| -0.672 | C[Si](C)(CCCN)N1CCC[Si]1(C)C |
| -9.687 | CC(C)(C)CC(C)(C)c1ccc(OCCOCC[N+](C)(C)Cc2ccccc2)cc1.[Cl-] |
| -4.028 | O=C1CC[C@@H](C(=O)O)N1 |
| -4.585 | Clc1ccc(Cl)c(-c2c(Cl)cc(Cl)c(Cl)c2Cl)c1 |
| -3.347 | C=C(C)C(=O)OCCCCCCCCCCCC |
| -10.44 | Cc1cc(C)nc(NS(=O)(=O)c2ccc(N)cc2)n1 |
| -1.298 | Nc1ccccn1 |
| -5.275 | Clc1cc(Cl)c(Cl)c(-c2c(Cl)cc(Cl)c(Cl)c2Cl)c1 |
| -9.648 | CC(C)CCCCCCCCCCCCCCC(=O)OCC(O)COCC(O)CO (centres undefined) |
| 1.82 | C[C@@H]1CC[C@H](C)C1 |
| -7.097 | OCC(CO)(CO)CO |
| -0.824 | CCCCCCCC[Si](C)(C)Cl |

The first 6 entries again:

| compound | log VP (log10 mmHg) |
|---|---|
| CCCCCCC(Cl)CCCC (centres undefined) | -1.514 |
| CCCCCCC(O)CCCCCCCCCCC(=O)O (centres undefined) | -6.715 |
| COc1c(O)c(OC)c(Cl)c(C=O)c1Cl | -3.726 |
| CC=CC(C)C | 2.316 |
| O=C(O)Cc1c[nH]c2ccccc12 | -6.824 |
| FC(F)(F)COC(F)(F)C(F)(F)C(F)(F)F | 2.424 |

Values as listed in the OPERA 2.9 repository of K. Mansouri.